Several values for one entry are separate records, joined by “and”; a condition that tells them apart may be missing. Equal entries are not always repeated.
Assays:
[1] = test system: HeLa cells; test: Clathrin-mediated endocytosis of transferrin (transferrin uptake); details: vs DMSO
Description: To test if the validated compounds are cell membrane permeable and, thus, can be used as medicaments and in cell-based experiments, the inventors analyzed clathrin-mediated endocytosis of transferrin in the presence of PI3KC2α inhibitors or DMSO as a solvent control. […] Similar results were obtained for C2a_Inh_3 (FIG. 8A). Further, the inventors monitored the CCP dynamics in cells with PI3KC2α inhibitor (C2a_Inh3) treatment for 1 h.

Chains of the proteins cited; added tags and fusions are not shown. Lines headed by an entry give the natural chain unless they say otherwise; changes in a name come on top. Residues count along the entry.
UniProt O00443, 299-1686 limits assumed, stated change not applied: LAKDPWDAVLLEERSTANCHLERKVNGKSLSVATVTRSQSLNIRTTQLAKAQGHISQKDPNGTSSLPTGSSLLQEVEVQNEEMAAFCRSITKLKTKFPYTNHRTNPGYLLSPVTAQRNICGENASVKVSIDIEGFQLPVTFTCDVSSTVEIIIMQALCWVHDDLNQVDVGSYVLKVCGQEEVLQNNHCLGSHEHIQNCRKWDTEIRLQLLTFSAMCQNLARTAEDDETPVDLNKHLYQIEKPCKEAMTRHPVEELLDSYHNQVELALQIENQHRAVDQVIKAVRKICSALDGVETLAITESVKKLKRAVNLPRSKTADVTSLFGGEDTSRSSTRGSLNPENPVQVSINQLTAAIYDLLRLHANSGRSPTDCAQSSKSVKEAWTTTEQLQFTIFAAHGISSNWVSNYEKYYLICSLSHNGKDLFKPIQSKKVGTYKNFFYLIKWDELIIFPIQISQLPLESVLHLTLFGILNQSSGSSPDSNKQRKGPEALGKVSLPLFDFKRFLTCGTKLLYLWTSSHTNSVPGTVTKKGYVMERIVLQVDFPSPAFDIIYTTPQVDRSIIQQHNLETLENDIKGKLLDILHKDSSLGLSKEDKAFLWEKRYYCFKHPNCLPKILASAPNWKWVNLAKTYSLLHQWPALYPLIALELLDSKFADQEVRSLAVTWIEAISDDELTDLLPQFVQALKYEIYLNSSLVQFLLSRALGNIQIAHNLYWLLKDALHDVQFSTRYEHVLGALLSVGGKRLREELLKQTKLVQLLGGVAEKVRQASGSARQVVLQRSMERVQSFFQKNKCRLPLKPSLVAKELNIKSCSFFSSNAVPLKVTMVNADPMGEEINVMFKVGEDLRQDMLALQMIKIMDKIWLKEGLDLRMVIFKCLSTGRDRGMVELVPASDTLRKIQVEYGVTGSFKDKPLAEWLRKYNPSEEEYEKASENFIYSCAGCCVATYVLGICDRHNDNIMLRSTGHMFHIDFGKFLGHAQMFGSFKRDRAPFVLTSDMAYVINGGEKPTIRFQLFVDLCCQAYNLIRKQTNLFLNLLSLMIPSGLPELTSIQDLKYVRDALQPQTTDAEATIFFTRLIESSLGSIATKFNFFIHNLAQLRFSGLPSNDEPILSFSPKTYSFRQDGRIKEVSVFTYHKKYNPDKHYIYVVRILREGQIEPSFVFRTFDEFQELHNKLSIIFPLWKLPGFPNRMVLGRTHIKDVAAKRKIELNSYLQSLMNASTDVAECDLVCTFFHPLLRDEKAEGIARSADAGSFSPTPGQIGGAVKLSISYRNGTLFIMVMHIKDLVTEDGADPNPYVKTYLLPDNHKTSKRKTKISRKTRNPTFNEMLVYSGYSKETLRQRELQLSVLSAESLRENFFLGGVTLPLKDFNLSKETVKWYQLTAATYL

[2] = molecular target: PI3KC2α Δ1-298 (Homo sapiens (Human), UniProt O00443); test: ADP-Glo kinase assay with purified PI3KC2α Δ1-298; details: read-out: IC50 for PI3KC2α inhibition
Description: Previous studies have shown that PI3KC2α can utilize phosphatidylinositol (PI) or phosphatidylinositol 4-phosphate [PI(4)P] to produce PI(3)P or PI(3,4)P2 respectively but with a preference for PI(3,4)P2 production. To verify that purified PI3KC2α Δ1-298 is active, a radioactive kinase assay was performed with PI as a substrate and different amounts of purified PI3KC2α Δ1-298. The lipid product [PI(3)P] was separated on TLC plates, and the PI(3)P signal was correlated with the amount of PI3KC2α used (FIG. 4A). […] After having confirmed the activity of purified PI3KC2α Δ1-298, an assay suitable for high content screens in multiwell format (ADP-Glo™ assay) was established. The ADP-Glo™ assay has been used for universal detection of ATP hydrolysis. This assay measures ATP hydrolysis occurring during a kinase reaction. For detection, generated ADP is re-converted into ATP with the […] and converted into light by the Ultra-Glo™ Luciferase reagent. The luminescent signal reports kinase activity (FIG. 4B).
The ADP-Glo™ assay was first used to determine the linear correlation range of signal with different amounts of kinase, and then to assess the Kms for ATP and for PI. […] Further optimization of this assay allowed us to carry out medium-to-high throughput screening using low amounts of purified enzyme (at fixed concentrations of: ATP=40 μM, PI=200 μM, PI3KC2α A1−298=10 ng/μl). […]

| IC50 [2] | Compound | reduction in transferrin uptake [1] |
| --- | --- | --- |
| – | CC(C)CCn1c(SCC(=O)Nc2ccccc2C(F)(F)F)nc2nccnc2c1=O | 20-30% |
| 0.76 µM and 0.5 to 0.6 µM | O=C(CSc1nc2nccnc2c(=O)n1CCc1ccccc1)Nc1ccccc1 [Example Compound 22, 2-((4-Oxo-3-phenethyl-3,4-dihydropteridin-2-yl)thio)-N-phenylacetamide] | 20-30% |
